Test results published in patent US10947243B2, “Heteroaryl SYK inhibitors” (Boehringer Ingelheim International GmbH, priority 2014, dated 2021).
Like-named read-outs stand apart in the source and are kept apart here.

Protein sequences, listed by entry. Tags and fused reporters are not part of them. Residues count along the entry.
UniProt P36888, 564-958: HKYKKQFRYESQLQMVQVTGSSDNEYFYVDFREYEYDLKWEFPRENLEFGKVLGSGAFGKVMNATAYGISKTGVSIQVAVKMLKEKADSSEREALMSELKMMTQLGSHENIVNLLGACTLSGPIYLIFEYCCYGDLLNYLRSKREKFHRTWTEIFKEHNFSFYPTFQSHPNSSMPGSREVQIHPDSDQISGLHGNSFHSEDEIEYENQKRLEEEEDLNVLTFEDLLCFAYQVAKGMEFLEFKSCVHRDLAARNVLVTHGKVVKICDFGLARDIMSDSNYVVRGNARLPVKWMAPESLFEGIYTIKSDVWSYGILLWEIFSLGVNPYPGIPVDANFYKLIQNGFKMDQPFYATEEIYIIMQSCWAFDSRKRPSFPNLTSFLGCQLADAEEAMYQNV

Legend:
FLT3 = FLT3 (Homo sapiens (Human), UniProt P36888); assay: FLT3 Kinase Test (Z'-LYTE); assay type: biochemical
Description: FLT3 is obtained from Invitrogen in 50 mM Tris (pH7.5); 100 mM NaCl; 0.05 mM EDTA, 0.05% NP-40, 2 mM DTT; 50% Glycerol # PV3182; Lot 286671; sequence see below). The enzyme is diluted to 720 nM (35 μg/ml) in enzyme dilution buffer and 10 μl aliquots are stored at −80° C.
The activity of FLT3 is measured using the Z′-LYTE™ assay technology from Invitrogen (#PV3191)
The assay is performed in 384 black plates from Corning (#3676) in a final volume of 10 μl by adding 5 μl of kinase peptide mix and 2.5 μl of compound dilution. The reaction is started by addition of 2.5 μl of the 4×ATP solution.
Positive controls are reaction mixtures containing no test compound; negative controls (blanks) are reaction mixtures containing no kinase. As a further control, the phosphopeptide solution is added to wells without kinase (=100% phosphorylation control). The non inhibited kinase reaction will result in a phosphorylation corresponding to 20%-30% of the phosphorylation control.
The reaction is performed for 1 h at room temperature before 5 μl of the development solution is added. After a further incubation for 1 h at room temperature 5 μl of the stop reagent is added. The plates are read on a Flex Station II 384 (Molecular Devices). […]
The output text file is evaluated in an “MS-Excel-VB-Makro” and “GraphPadPrism” (Version 5) (GraphPad Software Inc.) is used to calculate the results. […]

[1] = molecular target: Recombinant human Syk (amino acids 342-635) (Homo sapiens (Human), UniProt P43405); assay: Syk Kinase Test (Kinase Glo luminescence); assay type: biochemical; details: comparison compounds, Example numbers of WO 2013/014060; read-out: IC50 in μM (SYK-Inhibition)
Description: The output file of the reader is a csv file that contains the well number and measured relative light units (RLU). For data evaluation and calculation, the measurement of the negative control was set as 100% ctrl and the measurement of the positive control was set as 0% ctrl. Based on this values the % value for the measurement of each substance concentration was calculated using an Assay Explorer software (Accelrys). Normally, the % ctrl values calculated are between 0% and 100% values but may also occur outside these limits in individual cases based on variability or compound characteristics. The IC50 values were calculated from the % ctrl values using Assay Explorer software. Calculation: [y=(a−d)/(1+(x/c)^b)+d] a=low value, d=high value; x=conc M; c=IC50 M; b=hill; y=% ctrl.

Row | IC50 [1] [µM] | Structure (SMILES) | IC50 (FLT3; read-out: FLT3-inhibition IC50-value) [µM] | IC50 (FLT3; read-out: IC50 in μM (FLT3-Inhibition)) [µM]
1 | 0.001 | COc1cc(-c2cc3nn(C)cc3c(O[C@H](C)[C@H]3CNC(=O)C3)n2)ccc1O [Example 8, (4R)-4-[(1R)-1-[6-(4-Hydroxy-3-methoxy-phenyl)-2-methyl-pyrazolo[4,3-c]pyridin-4-yl]oxyethyl]pyrrolidin-2-one] | – | –
2 | 0.0002 | CCCn1cc(-c2cc(O[C@H](C)[C@H]3CNC(=O)C3)c3cccnc3c2)cn1 [compound 114] | – | –

Row | Structure (SMILES) | IC50 [1] [µM] | IC50 (FLT3; read-out: FLT3-inhibition IC50-value) [µM] | IC50 (FLT3; read-out: IC50 in μM (FLT3-Inhibition)) [µM]
3 | C[C@@H](Oc1cc(-c2cscn2)cc2nn(C)cc12)[C@H]1CNC(=O)C1 [Example 29, (4R)-4-[(1R)-1-(2-methyl-6-thiazol-4-yl-indazol-4-yl)oxyethyl]pyrrolidin-2-one] | 0.002 | 20.6 | 0.315
